Reference: US9580416B2, “Inhibitors of Bruton's tyrosine kinase” (PHARMACYCLICS LLC, priority 2014, dated 2017)

Protein sequences, listed by entry. Tags and fused reporters are not part of them. Residues count along the entry.
UniProt P52333, whole entry: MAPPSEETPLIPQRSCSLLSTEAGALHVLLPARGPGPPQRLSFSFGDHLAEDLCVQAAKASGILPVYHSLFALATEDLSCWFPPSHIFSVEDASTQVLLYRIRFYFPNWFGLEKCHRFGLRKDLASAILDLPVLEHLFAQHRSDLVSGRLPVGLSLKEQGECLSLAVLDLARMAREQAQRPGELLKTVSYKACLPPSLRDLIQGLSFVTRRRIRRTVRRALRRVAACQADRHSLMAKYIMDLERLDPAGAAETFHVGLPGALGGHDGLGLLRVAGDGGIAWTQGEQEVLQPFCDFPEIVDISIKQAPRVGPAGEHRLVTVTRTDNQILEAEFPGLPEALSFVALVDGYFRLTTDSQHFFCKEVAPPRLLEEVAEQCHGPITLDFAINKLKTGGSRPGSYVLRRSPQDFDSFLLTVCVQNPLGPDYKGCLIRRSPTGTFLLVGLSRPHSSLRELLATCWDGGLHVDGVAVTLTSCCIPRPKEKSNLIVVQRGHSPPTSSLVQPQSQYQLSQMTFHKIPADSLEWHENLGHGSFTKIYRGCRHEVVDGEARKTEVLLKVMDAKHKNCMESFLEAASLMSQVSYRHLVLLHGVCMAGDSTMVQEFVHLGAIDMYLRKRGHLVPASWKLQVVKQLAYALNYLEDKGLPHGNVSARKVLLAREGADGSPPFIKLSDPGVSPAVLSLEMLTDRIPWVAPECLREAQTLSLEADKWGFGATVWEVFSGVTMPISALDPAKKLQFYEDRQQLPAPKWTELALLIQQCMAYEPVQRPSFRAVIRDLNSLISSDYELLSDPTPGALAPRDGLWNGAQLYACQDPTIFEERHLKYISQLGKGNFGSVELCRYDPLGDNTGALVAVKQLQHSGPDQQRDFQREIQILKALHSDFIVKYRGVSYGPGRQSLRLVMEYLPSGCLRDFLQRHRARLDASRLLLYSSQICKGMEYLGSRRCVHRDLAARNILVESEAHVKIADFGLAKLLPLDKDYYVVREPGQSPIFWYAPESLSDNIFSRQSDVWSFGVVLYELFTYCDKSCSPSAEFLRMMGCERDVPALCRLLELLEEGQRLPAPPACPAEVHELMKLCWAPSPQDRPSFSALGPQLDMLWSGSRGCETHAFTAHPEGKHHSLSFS
UniProt Q06187, whole entry: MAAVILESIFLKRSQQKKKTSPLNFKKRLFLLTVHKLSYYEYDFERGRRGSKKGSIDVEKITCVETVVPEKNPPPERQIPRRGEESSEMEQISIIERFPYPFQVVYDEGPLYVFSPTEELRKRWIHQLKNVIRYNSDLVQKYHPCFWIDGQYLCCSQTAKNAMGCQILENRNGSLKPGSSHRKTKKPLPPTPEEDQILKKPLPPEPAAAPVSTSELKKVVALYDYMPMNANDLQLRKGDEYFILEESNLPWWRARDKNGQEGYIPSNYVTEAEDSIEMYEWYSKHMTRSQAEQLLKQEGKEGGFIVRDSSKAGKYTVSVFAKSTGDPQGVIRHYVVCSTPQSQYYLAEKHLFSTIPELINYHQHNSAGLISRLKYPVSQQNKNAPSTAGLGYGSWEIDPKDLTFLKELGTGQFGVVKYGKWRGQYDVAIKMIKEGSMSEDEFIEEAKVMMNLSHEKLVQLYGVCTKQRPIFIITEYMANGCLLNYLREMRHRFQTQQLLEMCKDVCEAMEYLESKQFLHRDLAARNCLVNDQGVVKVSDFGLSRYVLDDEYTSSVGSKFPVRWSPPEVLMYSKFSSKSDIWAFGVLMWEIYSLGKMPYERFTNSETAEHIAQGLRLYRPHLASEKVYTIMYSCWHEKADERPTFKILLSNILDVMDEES
UniProt P00533, 25-1210 limits assumed: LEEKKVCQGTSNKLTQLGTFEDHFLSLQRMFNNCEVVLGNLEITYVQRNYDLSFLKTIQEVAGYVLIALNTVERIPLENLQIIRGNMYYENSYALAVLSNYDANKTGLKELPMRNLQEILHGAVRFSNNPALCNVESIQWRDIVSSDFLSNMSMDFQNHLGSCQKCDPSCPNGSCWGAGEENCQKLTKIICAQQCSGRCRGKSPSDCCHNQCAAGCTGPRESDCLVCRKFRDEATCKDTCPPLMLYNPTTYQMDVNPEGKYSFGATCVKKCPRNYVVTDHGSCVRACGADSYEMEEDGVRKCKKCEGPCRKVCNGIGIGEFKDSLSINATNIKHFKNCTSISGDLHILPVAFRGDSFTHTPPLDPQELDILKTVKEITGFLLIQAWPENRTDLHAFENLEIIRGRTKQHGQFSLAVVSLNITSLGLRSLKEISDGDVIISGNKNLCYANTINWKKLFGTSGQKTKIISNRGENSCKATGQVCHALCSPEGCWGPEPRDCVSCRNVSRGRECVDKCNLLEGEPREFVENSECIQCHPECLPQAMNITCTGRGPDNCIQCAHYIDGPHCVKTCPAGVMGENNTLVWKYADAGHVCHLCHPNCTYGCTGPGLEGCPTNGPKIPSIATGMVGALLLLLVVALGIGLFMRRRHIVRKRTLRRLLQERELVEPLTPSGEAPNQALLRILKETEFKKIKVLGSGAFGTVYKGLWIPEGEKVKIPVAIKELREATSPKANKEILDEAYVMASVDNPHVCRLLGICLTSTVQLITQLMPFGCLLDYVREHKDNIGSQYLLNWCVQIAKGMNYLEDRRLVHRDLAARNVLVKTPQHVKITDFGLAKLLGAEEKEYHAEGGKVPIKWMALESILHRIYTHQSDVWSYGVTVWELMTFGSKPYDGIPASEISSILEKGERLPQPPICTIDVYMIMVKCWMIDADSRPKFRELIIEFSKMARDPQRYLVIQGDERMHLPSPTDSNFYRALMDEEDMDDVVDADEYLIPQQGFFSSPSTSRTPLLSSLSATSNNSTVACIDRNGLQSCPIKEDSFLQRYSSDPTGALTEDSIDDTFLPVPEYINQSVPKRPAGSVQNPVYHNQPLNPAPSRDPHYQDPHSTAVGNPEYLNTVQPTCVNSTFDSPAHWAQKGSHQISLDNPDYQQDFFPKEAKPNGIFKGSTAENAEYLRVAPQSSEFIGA
UniProt P06239, whole entry: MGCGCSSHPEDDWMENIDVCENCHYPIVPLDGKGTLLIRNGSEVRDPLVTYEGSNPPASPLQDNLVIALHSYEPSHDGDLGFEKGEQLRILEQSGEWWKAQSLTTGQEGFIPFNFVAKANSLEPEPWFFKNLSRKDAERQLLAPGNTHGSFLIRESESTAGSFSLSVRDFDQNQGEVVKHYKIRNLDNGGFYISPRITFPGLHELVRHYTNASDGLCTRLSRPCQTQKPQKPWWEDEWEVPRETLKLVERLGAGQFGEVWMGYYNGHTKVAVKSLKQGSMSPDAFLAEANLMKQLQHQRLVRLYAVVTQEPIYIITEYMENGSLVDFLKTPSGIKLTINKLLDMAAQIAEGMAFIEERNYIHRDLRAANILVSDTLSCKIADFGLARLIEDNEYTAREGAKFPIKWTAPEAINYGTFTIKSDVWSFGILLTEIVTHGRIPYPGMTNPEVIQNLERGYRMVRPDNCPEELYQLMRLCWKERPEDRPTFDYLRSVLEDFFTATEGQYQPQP

Tests used:
JAK3 = JAK3 (Homo sapiens, UniProt P52333); experiment: Inhibition of a panel of kinases, in vitro HotSpot kinase assay: JAK3; conditions: read-out: JAK3 (IC50); tested form: formic acid salt
Experimental: (§1) The degree of inhibition of a panel of kinases is determined using the in vitro HotSpot kinase assay (purified enzymes, ^33P-ATP, an appropriate substrate and 1 uM ATP).

Btk = Btk (Homo sapiens, UniProt Q06187); experiment: Btk kinase activity, TR-FRET assay; format: biochemical; conditions: read-out: Btk (IC50); tested form: formic acid salt
Experimental: (§2) Btk kinase activity is determined using a time-resolved fluorescence resonance energy transfer (TR-FRET) methodology. Measurements are performed in a reaction volume of 50 μL using 96-well assay plates. Kinase enzyme, inhibitor, ATP (at the Km for the kinase), and 1 […] (Biotin-AVLESEEELYSSARQ-NH2) are incubated in a reaction buffer composed of 20 mM Tris, 50 mM NaCl, MgCl2 (5-25 mM depending on the kinase), MnCl2 (0-10 mM), 1 mM DTT, 0.1 mM EDTA, 0.01% bovine serum albumin, 0.005% Tween-20, and 10% DMSO at pH 7.4 for one hour. The reaction is quenched by the addition of 1.2 equivalents of EDTA (relative to divalent cation) in 25 μL of 1× Lance buffer (Perkin-Elmer). […] The TR-FRET signal is measured on a multimode plate reader with an excitation wavelength (λEx) of 330 nm and detection wavelengths (λEm) of 615 and 665 nm. Activity is determined by the ratio of the fluorescence at 665 nm to that at 615 nm. For each compound, enzyme activity is measured at various concentrations of compound. Negative control reactions are performed in the absence of inhibitor in replicates of six, and two no-enzyme controls are used to determine baseline fluorescence levels. […]

EGFR = EGFR (Homo sapiens, UniProt P00533); experiment: Inhibition of a panel of kinases, in vitro HotSpot kinase assay: EGFR; conditions: read-out: EGFR (IC50); tested form: formic acid salt
Experimental: as §1

Lck = Lck (Homo sapiens, UniProt P06239); experiment: Lck kinase activity, TR-FRET assay; format: biochemical; conditions: read-out: LCK (IC50); tested form: formic acid salt
Experimental: as §2

Measured: IC50

CC#CC(=O)N1CCC[C@@H](Nc2n[nH]c3nccc(Nc4cccc(C(=O)Nc5ccc(C(C)C)c(C)c5)c4)c23)C1
100 to 1000 nM: all assays above
